Laboratory results as given in ChEMBL document CHEMBL1138646, “Carbonic anhydrase inhibitors: inhibition of the membrane-bound human isozyme IV with anions” (Bioorg Med Chem Lett, 2004).

Target: Carbonic anhydrase 9 (Homo sapiens, UniProt Q16790)

With `[N-]=[N+]=N` the Ki was 5 µM.
